Reference: patent publication US5385833A, “Pseudomonas sp. ATCC No. 49794 alcohol dehydrogenase” (The Scripps Research Institute, priority 1992, dated 1995)
This is a selection: effects in other tests are not listed, and their absence says nothing.

Test system: Pseudomonas sp. strain PED alcohol dehydrogenase
Assay: PED alcohol dehydrogenase enzyme assay, reduction of carbonyl substrates (relative rates)
Type: biochemical
Settings: Table 2; determined as described in Table 1 (10 mM ketone, 0.45 mM NADH, 340 nm)

`O=C1CCN(Cc2ccccc2)CC1` gave a Relative rate of 6.
